Measured values from PubChem BioAssay AID651725 (National Center for Advancing Translational Sciences (NCATS), 2012).
This is a selection; strong and weak results do not stand in their true shares. Calls of active or inactive are those of the source. Cut-off read from the data, not from the text of the source: active = activity change below about -65%; inconclusive = mostly about -30% to -63%; inactive = weaker than that.

Sequences of proteins named here, by UniProt entry; tags and fusion partners are left off. A change or cut given only in a name is not applied to a line headed by its entry.
UniProt Q15475: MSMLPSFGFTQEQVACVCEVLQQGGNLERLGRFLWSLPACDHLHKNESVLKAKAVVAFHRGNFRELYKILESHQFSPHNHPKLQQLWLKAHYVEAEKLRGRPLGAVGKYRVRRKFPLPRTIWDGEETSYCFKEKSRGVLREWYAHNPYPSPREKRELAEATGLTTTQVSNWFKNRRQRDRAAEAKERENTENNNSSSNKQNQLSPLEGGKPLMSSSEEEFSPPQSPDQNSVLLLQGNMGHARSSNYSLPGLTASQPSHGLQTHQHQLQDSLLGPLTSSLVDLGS
UniProt O00167: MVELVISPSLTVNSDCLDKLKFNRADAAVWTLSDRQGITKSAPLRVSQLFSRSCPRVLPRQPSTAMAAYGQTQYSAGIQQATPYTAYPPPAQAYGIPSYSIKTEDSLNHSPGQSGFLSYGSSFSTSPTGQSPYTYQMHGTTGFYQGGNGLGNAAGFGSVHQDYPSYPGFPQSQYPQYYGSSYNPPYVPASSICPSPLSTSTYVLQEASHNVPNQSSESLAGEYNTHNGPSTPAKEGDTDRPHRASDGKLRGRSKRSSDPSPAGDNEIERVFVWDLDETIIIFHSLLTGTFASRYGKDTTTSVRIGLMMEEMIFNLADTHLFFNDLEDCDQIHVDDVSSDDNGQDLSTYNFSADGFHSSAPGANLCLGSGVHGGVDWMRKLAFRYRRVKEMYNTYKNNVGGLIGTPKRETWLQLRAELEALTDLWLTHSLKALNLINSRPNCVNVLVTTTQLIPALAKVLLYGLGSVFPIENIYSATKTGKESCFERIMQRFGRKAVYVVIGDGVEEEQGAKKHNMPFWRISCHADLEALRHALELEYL

target: Homeobox protein SIX1 (Homo sapiens) + Protein phosphatase EYA2 (Homo sapiens) (UniProt Q15475+O00167); assay: qHTS Assay for Inhibitors of the Six1/Eya2 Interaction; settings: AlphaScreen GST-Six1/His-Eya2 binding, biochemical; active compounds read low
Description: Its expression is low or undetectable in normal adult breast tissue but the gene is over-expressed in 50% of primary breast tumors and 90% of metastatic lesions. […] Similar to Six1, Eya2 is also not expressed in most normal adult tissues, but is reexpressed in cancers. The Six1-Eya interaction is essential for proliferation during embryonic development, and both Six1 and Eya2 have been independently implicated in the same types of cancer. Because Six1 and Eya2 are embryonic genes with little expression in adult tissues, inhibitors of their expression/activity are likely to have limited side effects. Our goal is to identify inhibitors of the Six1/Eya interaction for potential cancer therapy. To this end, we have developed a homogenous AlphaScreen assay targeting the Six1/Eya interaction. We performed a large scale HTS of the Molecular Libraries Small Molecule Repository (MLSMR) to identify inhibitors of the Six1/Eya interaction as potential anti-cancer therapeutics. Compounds identified can also be used as chemical probes to better understand the biological functions of Six1 and Eya. […]
The first step of the 5 uL AlphaScreen assay is to dispense assay buffer (50 mM Tris, pH 8.0, 300 mM NaCl, 0.05% BSA, 0.02% Tween 20, 1 mM TCEP) into a Greiner 1536 white solid bottom microtiter plate (789175-F). […] The plate is read using a Perkin Elmer Envision using an AlphaScreen protocol.
% is set by controls: 0 for no effect and ±100 for the full control effect.

Compound | activity change
c1ccc(-c2nn[nH]n2)c(-c2nn[nH]n2)c1 | active: -80.8%
